Data on two molecules can be found in patent US20250205337A1, “COMPOSITIONS AND METHODS FOR ACTIVATING IMMUNE CELLS” (MDX Management LLC, priority 2022, published 2025).

Assay [1] concerns monocytes from cancer patients (cMo). Put plainly: Cytokine depletion assays of Karnelian X1 (cMo survival/adhesion and differentiation). It is filed as cell-based, human. From the text: (§1) Analyses of cytokines identified IFNγ, IL-2, IL-10, TNFα, GM-CSF, IL-6, IL-17, M-CSF, and IL-4 (FIG. 5A). Particularly, high levels of IL-10 and IL-6 were detected in Karnelian X1. Further cytokine depletion assays confirmed the critical role of IL-10, and its depletion largely (60-80%) diminished the capacity of cMo adhesion and survival (FIG. 5B).
Three other cytokines, TNFα, IFNγ and IL-4, were also found to be important. Depletion of TNFα or IFNγ in Karnelian X1 reduced both cMo survival (˜20%) and survived cMo differentiation into APCs (30-70% reduction of MHC-II) (FIG. 5B). […] The differentiation of cMo from >100 cancer patient samples was tested. […] FIG. 6E summarizes the roles of each cytokine in Karnelian X1 as defined by detailed experiments. Among other cytokines, IL-2, IL-17 and M-CSF were dispensable, while the roles of GM-CSF and IL-6 were variable. […] This fact of cMo contrasts to Monocytes from healthy donors that generally display nearly unified receptor expression and responses to treatments.
The role of IL-10 and other key factors in KX1 was further studied. As shown in FIG. 9A-9D, depletion of IL-10 diminished (>70%) KX1-mediated activation of Akt, Erk 1/2, and STAT3, and this global reduction of survival signal was associated with an increase in cell death signal through activation of caspase-9 and caspase-3.

Assay [2] has the same test system. Put plainly: cMo survival in vitro (STAT3 activators, inhibitors, M-CSF/GM-CSF, KX1). The assay is classed as cell-based, human.
Source text: Similarly, cMo poorly respond to GM-CSF alone or GM-CSF plus IL-4 that drives DC differentiation (data not shown). […] Parallel experiments testing the same M-CSF and GM-CSF reagents successfully differentiated Mo from healthy donors with >90% survival rates.
In these experiments (see FIG. 3A), freshly isolated T cells from PBMC from either healthy donors or autologous cancer patients were ligated with anti-CD3 and anti-CD28 antibodies to trigger TCR activation in “autoimmune” CD4 T cells, which secreted abnormally high level of IL-10 (>20 ng/ml) during the first round of anti-CD3/anti-CD28 co-stimulation (FIGS. 3A-3D). After two days, the T cell culture medium was used to treat cMo. […] Further, this culture condition induced their phenotypic differentiation into professional APCs (FIG. 3I).
as §1
IL-10/IL-10R signaling activates the downstream STAT3 signaling pathway. Other cytokines in the IL-10 family can activate STAT3 and were further shown to induce similar levels of cMo survival in vitro. […] IL-6 is a known activator of the STAT3 pathway, however the cMo survival rates were lowest when incubated with IL-6 alone, thereby highlighting the unexpected results of IL-10, IL-12, and their cytokine family members as a pro-survival mechanism for cMos in vitro.
The mechanisms by which KX1 could promote cMo survival was further studied.

In the case of IL-2: cytokine in Karnelian X1, in assay [1], the “role of the cytokine in Karnelian X1 for cMo survival and differentiation” value is on record as “dispensable”.

B1: IL-20: IL-10 family cytokine, STAT3 activator (protein, UniProt Q9NYY1 25-176, looked up)
Interleukin-20: LKTLNLGSCVIATNLQEIRNGFSEIRGSVQAKDGNIDIRILRRTESLQDTKPANRCCLLRHLLRLYLDRVFKNYQTPDHYTLRKISSLANSFLTIKKDLRLCHAHMTCHCGEEAMKKYSQILSHFEKLEPQAAVVKALGELDILLQWMEETE
As to B1, in assay [2] (IL-10-depleted KX1 / in place of IL-10), the “cMo survival (and differentiation) on supplementation” value was “could replace IL-10 to support cMo survival and differentiation”. The “Effectiveness (cMo survival rate)” value in assay [2] (in vitro, at optimal concentration) is reported as 70-85%. The “Optimal concentration (ng/mL)” value in assay [2] (promoting cMo survival in vitro) was >10 ng/mL (10-100).
